Sequences of proteins named here, by UniProt entry; tags and fusion partners are left off. Residues count along the entry.
UniProt P43220, 24-463: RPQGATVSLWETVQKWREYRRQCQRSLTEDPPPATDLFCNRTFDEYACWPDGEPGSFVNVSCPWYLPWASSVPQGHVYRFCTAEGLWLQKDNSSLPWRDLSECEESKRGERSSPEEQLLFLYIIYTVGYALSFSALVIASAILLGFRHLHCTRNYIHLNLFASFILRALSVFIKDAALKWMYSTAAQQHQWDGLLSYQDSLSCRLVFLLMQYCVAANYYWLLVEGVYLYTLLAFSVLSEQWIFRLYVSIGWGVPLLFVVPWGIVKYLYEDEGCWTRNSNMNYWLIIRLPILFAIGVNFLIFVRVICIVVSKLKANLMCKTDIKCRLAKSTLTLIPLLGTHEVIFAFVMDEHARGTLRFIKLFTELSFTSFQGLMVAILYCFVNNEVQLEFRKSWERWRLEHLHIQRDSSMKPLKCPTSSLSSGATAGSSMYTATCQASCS

According to publication PMC11117309:

Biological target: glucagon-like peptide-1 receptor (hGLP-1R) (human) (UniProt P43220)

- HTRF cAMP assay (decrease of the FRET signal) in GLP-1R expressing HEK293 cells, EC50: 0.18 nM
Substance: L-GLP-1 peptide (glucagon-like peptide 1)
